Data as given in ChEMBL document CHEMBL4689842, “EUbOPEN Chemogenomics Library wave 1” (2021).
Values joined by “and” are separate entries in the source; they are usually repeats but may differ in a detail not shown here. Equal values may be shown once. This is a selection: effects in other tests are not listed, and their absence says nothing.

Tests used:
Format in all cases: toxicity, cell-based
[1] = system: Fibroblast; assay: Multiplex assay against human fibroblast
[2] = system: U2OS; assay: Incucyte cell viability with U2OS; conditions: human, 10 µM; further: filed as whole numbers so only -1 and 0 and 1 occur
[3] = system: Fibroblast; assay: Incucyte cell viability with human fibroblast; conditions: 10 µM; further: filed as whole numbers so only -1 and 0 and 1 occur
[4] = system: U2OS; assay: Multiplex assay against U2OS; conditions: human

In the case of `CC(=O)N1CCc2ccc(N(C(=O)/C=C/c3cccc(C#N)c3)C3CCN(CCC4CCCC4)CC3)cc21`, the Population Apoptotic (%) ([1]; 0 h, 1 µM) is reported as 69% and 62%, the Population Fragmented Nuclei (%) ([1]; 0 h, 1 µM) is reported as 31% and 17% and the Population Hoechst High Intensity Objects (%) ([1]; 0 h, 1 µM) is reported as 12% and 6%. For the same molecule, the Population Membrane Permeable-Phenotype (%) ([1]; 0 h, 1 µM) was 3%, the Population Mitochondria Different-Phenotype (%) ([1]; 0 h, 1 µM) was 34% and 26% and the Population Mitotic Cells (%) ([1]; 0 h, 1 µM) was 30% and 37%. For the same molecule, the Population Normal (%) ([1]; 0 h, 1 µM) was 87% and 93%, the Population Tubulin-Different-Phenotype (%) ([1]; 0 h, 1 µM) was 20% and 24% and the Population Apoptotic (%) ([1]; 0 h, 10 µM) was 70% and 45%. For the same molecule, the Population Hoechst High Intensity Objects (%) ([1]; 0 h, 10 µM) was 23% and 12%, the Population Mitochondria Different-Phenotype (%) ([1]; 0 h, 10 µM) was 17% and 21% and the Population Mitotic Cells (%) ([1]; 0 h, 10 µM) was 29% and 54%. For the same molecule, the Population Normal (%) ([1]; 0 h, 10 µM) was 76% and 87%, the Population Pyknosed Nuclei (%) ([1]; 0 h, 10 µM) was 37% and 19% and the Total Cell Count ([1]; 0 h, 10 µM) was 108 and 132. For the same molecule, the Population Apoptotic (%) ([1]; 12 h, 1 µM) was 70% and 50%, the Population Fragmented Nuclei (%) ([1]; 12 h, 1 µM) was 18% and 12% and the Population Hoechst High Intensity Objects (%) ([1]; 12 h, 1 µM) was 6% and 9%. For the same molecule, the Population Mitochondria Different-Phenotype (%) ([1]; 12 h, 1 µM) was 27% and 18%, the Population Mitotic Cells (%) ([1]; 12 h, 1 µM) was 29% and 50% and the Population Normal (%) ([1]; 12 h, 1 µM) was 93% and 90%. The Total Cell Count ([1]; 12 h, 1 µM) was 163 and 100, the Population Apoptotic (%) ([1]; 12 h, 10 µM) was 66% and the Population Membrane Permeable-Phenotype (%) ([1]; 12 h, 10 µM) was 16% and 24%. The Population Mitotic Cells (%) ([1]; 12 h, 10 µM) was 33%, the Population Normal (%) ([1]; 12 h, 10 µM) was 83% and 93% and the Population Pyknosed Nuclei (%) ([1]; 12 h, 10 µM) was 29% and 19%. For the same molecule, the Total Cell Count ([1]; 12 h, 10 µM) was 86 and 54, the Population Apoptotic (%) ([1]; 24 h, 1 µM) was 59% and 62% and the Population Healthy Nuclei (%) ([1]; 24 h, 1 µM) was 52% and 75%. For the same molecule, the Population Hoechst High Intensity Objects (%) ([1]; 24 h, 1 µM) was 15% and 11%, the Population Mitotic Cells (%) ([1]; 24 h, 1 µM) was 40% and 37% and the Population Normal (%) ([1]; 24 h, 1 µM) was 84% and 88%. The Population Pyknosed Nuclei (%) ([1]; 24 h, 1 µM) was 20% and 15%, the Total Cell Count ([1]; 24 h, 1 µM) was 184 and 125 and the Population Apoptotic (%) ([1]; 24 h, 10 µM) was 78% and 76%. For the same molecule, the Population Membrane Permeable-Phenotype (%) ([1]; 24 h, 10 µM) was 20% and 22%, the Population Mitotic Cells (%) ([1]; 24 h, 10 µM) was 21% and 23% and the Population Normal (%) ([1]; 24 h, 10 µM) was 76% and 95%. The Population Pyknosed Nuclei (%) ([1]; 24 h, 10 µM) was 20%, the Population Tubulin-Different-Phenotype (%) ([1]; 24 h, 10 µM) was 91% and 88% and the Total Cell Count ([1]; 24 h, 10 µM) was 89 and 60. For the same molecule, the Population Fragmented Nuclei (%) ([1]; 48 h, 1 µM) was 49% and 28%, the Population Hoechst High Intensity Objects (%) ([1]; 48 h, 1 µM) was 15% and 12% and the Population Membrane Permeable-Phenotype (%) ([1]; 48 h, 1 µM) was 15% and 12%. The Population Normal (%) ([1]; 48 h, 1 µM) was 84% and 87%, the Population Tubulin-Different-Phenotype (%) ([1]; 48 h, 1 µM) was 78% and 53% and the Population Fragmented Nuclei (%) ([1]; 48 h, 10 µM) was 54%. For the same molecule, the Population Healthy Nuclei (%) ([1]; 48 h, 10 µM) was 45% and 37%, the Population Mitotic Cells (%) ([1]; 48 h, 10 µM) was 0% and the Population Normal (%) ([1]; 48 h, 10 µM) was 84% and 63%. For the same molecule, the Population Tubulin-Different-Phenotype (%) ([1]; 48 h, 10 µM) was 96% and 80%, the Growth Rate ([2]; 0 h) was 0 and the Growth Rate ([2]; 6 h) was 1. The Growth Rate ([2]; 12 h) was 1, the Growth Rate ([2]; 18 h) was 1 and the Growth Rate ([2]; 24 h) was 1. It also gave a Growth Rate ([3]; 0 h) of 0, a Growth Rate ([3]; 12 h) of 0 and a Growth Rate ([3]; 18 h) of 0. The Growth Rate ([3]; 24 h) was 0, the Population Apoptotic (%) ([4]; 0 h, 1 µM) was 18% and 33% and the Population Fragmented Nuclei (%) ([4]; 0 h, 1 µM) was 10% and 12%. For the same molecule, the Population Healthy Nuclei (%) ([4]; 0 h, 1 µM) was 69% and 74%, the Population Hoechst High Intensity Objects (%) ([4]; 0 h, 1 µM) was 16% and 11% and the Population Mitochondria Different-Phenotype (%) ([4]; 0 h, 1 µM) was 24% and 17%. For the same molecule, the Population Mitotic Cells (%) ([4]; 0 h, 1 µM) was 81% and 66%, the Population Normal (%) ([4]; 0 h, 1 µM) was 83% and 88% and the Population Pyknosed Nuclei (%) ([4]; 0 h, 1 µM) was 20% and 12%. The Population Tubulin-Different-Phenotype (%) ([4]; 0 h, 1 µM) was 9% and 17%, the Total Cell Count ([4]; 0 h, 1 µM) was 161 and 84 and the Population Fragmented Nuclei (%) ([4]; 0 h, 10 µM) was 9% and 12%. For the same molecule, the Population Healthy Nuclei (%) ([4]; 0 h, 10 µM) was 74% and 77%, the Population Hoechst High Intensity Objects (%) ([4]; 0 h, 10 µM) was 5% and 6% and the Population Mitotic Cells (%) ([4]; 0 h, 10 µM) was 75% and 100%. The Population Normal (%) ([4]; 0 h, 10 µM) was 94% and 93%, the Population Pyknosed Nuclei (%) ([4]; 0 h, 10 µM) was 16% and 9% and the Population Tubulin-Different-Phenotype (%) ([4]; 0 h, 10 µM) was 9% and 16%. For the same molecule, the Population Apoptotic (%) ([4]; 12 h, 1 µM) was 37% and 50%, the Population Fragmented Nuclei (%) ([4]; 12 h, 1 µM) was 10% and 12% and the Population Healthy Nuclei (%) ([4]; 12 h, 1 µM) was 72% and 75%. The Population Hoechst High Intensity Objects (%) ([4]; 12 h, 1 µM) was 8% and 9%, the Population Mitotic Cells (%) ([4]; 12 h, 1 µM) was 62% and 50% and the Population Normal (%) ([4]; 12 h, 1 µM) was 91% and 90%. For the same molecule, the Population Pyknosed Nuclei (%) ([4]; 12 h, 1 µM) was 17% and 12%, the Total Cell Count ([4]; 12 h, 1 µM) was 198 and 100 and the Population Apoptotic (%) ([4]; 12 h, 10 µM) was 66% and 74%. For the same molecule, the Population Fragmented Nuclei (%) ([4]; 12 h, 10 µM) was 6% and 10%, the Population Healthy Nuclei (%) ([4]; 12 h, 10 µM) was 73% and 70% and the Population Hoechst High Intensity Objects (%) ([4]; 12 h, 10 µM) was 6% and 3%. For the same molecule, the Population Mitochondria Different-Phenotype (%) ([4]; 12 h, 10 µM) was 93% and 99%, the Population Mitotic Cells (%) ([4]; 12 h, 10 µM) was 33% and 25% and the Population Normal (%) ([4]; 12 h, 10 µM) was 93% and 96%. For the same molecule, the Population Pyknosed Nuclei (%) ([4]; 12 h, 10 µM) was 19%, the Population Tubulin-Different-Phenotype (%) ([4]; 12 h, 10 µM) was 100% and the Population Apoptotic (%) ([4]; 24 h, 1 µM) was 58% and 62%. The Population Fragmented Nuclei (%) ([4]; 24 h, 1 µM) was 7% and 9%, the Population Healthy Nuclei (%) ([4]; 24 h, 1 µM) was 72% and 75% and the Population Hoechst High Intensity Objects (%) ([4]; 24 h, 1 µM) was 7% and 11%. For the same molecule, the Population Mitotic Cells (%) ([4]; 24 h, 1 µM) was 41% and 37%, the Population Normal (%) ([4]; 24 h, 1 µM) was 92% and 88% and the Population Pyknosed Nuclei (%) ([4]; 24 h, 1 µM) was 20% and 15%. For the same molecule, the Total Cell Count ([4]; 24 h, 1 µM) was 226 and 125, the Population Apoptotic (%) ([4]; 24 h, 10 µM) was 76% and 75% and the Population Fragmented Nuclei (%) ([4]; 24 h, 10 µM) was 12% and 14%. For the same molecule, the Population Healthy Nuclei (%) ([4]; 24 h, 10 µM) was 67% and 60%, the Population Hoechst High Intensity Objects (%) ([4]; 24 h, 10 µM) was 4% and the Population Mitochondria Different-Phenotype (%) ([4]; 24 h, 10 µM) was 97% and 100%. The Population Mitotic Cells (%) ([4]; 24 h, 10 µM) was 23% and 25%, the Population Normal (%) ([4]; 24 h, 10 µM) was 95% and 96% and the Population Pyknosed Nuclei (%) ([4]; 24 h, 10 µM) was 20% and 25%. For the same molecule, the Population Tubulin-Different-Phenotype (%) ([4]; 24 h, 10 µM) was 88% and 100%, the Population Apoptotic (%) ([4]; 48 h, 1 µM) was 50% and 57% and the Population Fragmented Nuclei (%) ([4]; 48 h, 1 µM) was 8% and 11%. For the same molecule, the Population Healthy Nuclei (%) ([4]; 48 h, 1 µM) was 82% and 69%, the Population Hoechst High Intensity Objects (%) ([4]; 48 h, 1 µM) was 8% and 6% and the Population Membrane Permeable-Phenotype (%) ([4]; 48 h, 1 µM) was 9% and 6%. The Population Mitochondria Different-Phenotype (%) ([4]; 48 h, 1 µM) was 20% and 29%, the Population Mitotic Cells (%) ([4]; 48 h, 1 µM) was 50% and 42% and the Population Normal (%) ([4]; 48 h, 1 µM) was 91% and 93%. The Population Tubulin-Different-Phenotype (%) ([4]; 48 h, 1 µM) was 23% and 31%, the Total Cell Count ([4]; 48 h, 1 µM) was 110 and 208 and the Population Fragmented Nuclei (%) ([4]; 48 h, 10 µM) was 22% and 17%. For the same molecule, the Population Hoechst High Intensity Objects (%) ([4]; 48 h, 10 µM) was 5% and 3%, the Population Mitochondria Different-Phenotype (%) ([4]; 48 h, 10 µM) was 100% and 97% and the Population Normal (%) ([4]; 48 h, 10 µM) was 95% and 96%. The Population Pyknosed Nuclei (%) ([4]; 48 h, 10 µM) was 47% and 25% and the Population Tubulin-Different-Phenotype (%) ([4]; 48 h, 10 µM) was 100% and 95%.
